Earlier results on one molecule are cited in article PMC4109288 (Lancet, 2012).

For this data set, the system named is mutant BRAF. The conditions noted are these: kinase panel screening, cell lines, and xenografts; cited from earlier work.

Take `CC(C)(C)c1nc(-c2cccc(NS(=O)(=O)c3c(F)cccc3F)c2F)c(-c2ccnc(N)n2)s1` [dabrafenib, Dabrafenib]: the “Selectivity for mutant BRAF” value is reported as “highly selective for mutant BRAF”.
